# Experimental data as given in ChEMBL document CHEMBL1156754, “Human P2Y(14) receptor agonists: truncation of the hexose moiety of uridine-5'-diphosphoglucose and its replacement with alkyl and aryl groups” (J Med Chem, 2010).
# Species: Homo sapiens
# Test: Selectivity, ratio of EC50 for human P2Y6 receptor to EC50 for human P2Y14 receptor
compound,measurement,value
O=c1ccn([C@@H]2O[C@H](COP(=O)(O)C(F)(F)P(=O)(O)O)[C@@H](O)[C@H]2O)c(=O)[nH]1,Ratio EC50,> 2000
